Data on 1 compound can be found in US8268836B2, “Compound useful as a c-Met inhibitor” (Eli Lilly and Company, priority 2010, dated 2012).

The chains behind the UniProt entries cited, without tags or fusion partners. Residues count along the entry.
UniProt P08581, 25-1390 limits assumed: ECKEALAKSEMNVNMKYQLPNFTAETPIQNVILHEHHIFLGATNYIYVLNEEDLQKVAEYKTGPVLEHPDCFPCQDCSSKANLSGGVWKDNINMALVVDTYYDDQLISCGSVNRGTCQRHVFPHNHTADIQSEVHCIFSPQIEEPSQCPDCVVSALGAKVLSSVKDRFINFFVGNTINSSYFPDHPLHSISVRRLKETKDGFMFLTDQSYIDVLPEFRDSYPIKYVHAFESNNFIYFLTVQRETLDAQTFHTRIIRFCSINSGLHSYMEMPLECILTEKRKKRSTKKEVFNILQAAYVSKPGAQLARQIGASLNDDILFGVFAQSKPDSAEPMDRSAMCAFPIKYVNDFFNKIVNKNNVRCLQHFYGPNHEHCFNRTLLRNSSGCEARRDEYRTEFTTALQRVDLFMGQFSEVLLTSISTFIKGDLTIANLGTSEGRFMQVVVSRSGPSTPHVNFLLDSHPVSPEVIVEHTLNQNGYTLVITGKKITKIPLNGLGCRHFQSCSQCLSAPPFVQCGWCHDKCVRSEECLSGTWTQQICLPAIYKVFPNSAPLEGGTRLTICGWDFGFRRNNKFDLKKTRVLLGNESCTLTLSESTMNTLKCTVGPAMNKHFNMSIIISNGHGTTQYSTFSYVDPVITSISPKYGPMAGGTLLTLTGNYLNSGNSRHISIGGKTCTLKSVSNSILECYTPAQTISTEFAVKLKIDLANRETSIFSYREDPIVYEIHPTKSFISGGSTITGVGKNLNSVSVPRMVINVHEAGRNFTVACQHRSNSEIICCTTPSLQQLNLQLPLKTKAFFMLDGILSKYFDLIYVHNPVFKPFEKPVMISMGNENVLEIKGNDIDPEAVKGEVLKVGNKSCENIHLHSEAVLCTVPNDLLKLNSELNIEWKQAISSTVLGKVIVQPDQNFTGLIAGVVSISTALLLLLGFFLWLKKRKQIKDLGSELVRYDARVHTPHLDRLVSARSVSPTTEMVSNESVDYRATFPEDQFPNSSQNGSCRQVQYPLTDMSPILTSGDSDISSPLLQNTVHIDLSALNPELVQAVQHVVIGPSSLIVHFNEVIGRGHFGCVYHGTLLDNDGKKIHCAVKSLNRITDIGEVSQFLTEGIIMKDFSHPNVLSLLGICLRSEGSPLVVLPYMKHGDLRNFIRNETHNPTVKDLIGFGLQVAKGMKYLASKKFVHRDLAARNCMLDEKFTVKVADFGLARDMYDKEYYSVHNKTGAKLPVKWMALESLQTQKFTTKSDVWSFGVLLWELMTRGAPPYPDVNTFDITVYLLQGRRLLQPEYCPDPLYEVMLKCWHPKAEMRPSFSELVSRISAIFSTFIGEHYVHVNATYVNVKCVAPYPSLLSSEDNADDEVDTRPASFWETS

Series [1] deals with human c-Met (phospho-c-Met in S114 tumors) (Homo sapiens, UniProt P08581). Briefly: c-Met in vivo target inhibition (IVTI) assay, S114 tumors in nude mice. Further details: species or system mouse. As for the experimental part:
S114 cells (over-expressing both human HGF and human c-Met) are cultured in a growth media (Dulbecco's Modified Eagle Medium) supplemented with 10% fetal calf serum and expanded. Cells are harvested and washed twice with phosphate buffered saline and 2×10^6 cells are mixed with equal volume of BD Matrigel™ matrix (BD Bioscience, Franklin, N.J.), and injected subcutaneously into the flank of nude mice (athymic nude, from Harlan, Indianapolis, Ind.). At day 8 after implant, compounds (formulated in 10% acacia or 1% carboxymethylcellulose/0.5% sodium lauryl sulfate/0.05% antifoam as suspension) are administered to animals by oral gavage at 50 mg/kg. Animals are sacrificed at 2 h post dose, and tumors are harvested and stored frozen until needed.
Frozen tumors are pulverized using motar-pestel. The pulverized tissues are transferred to a tube containing Lysing Matrix D beads (MP Biomedicals, Solon, Ohio) and 600 μL lysis buffer (RIPA buffer, containing 50 mM Tris-HCl, pH 7.4, 150 mM NaCl, 1% NP-40, 0.5% sodium deoxycholate, 0.1% SDS, from Boston Bioproducts, Phosphatase Inhibitors I and II and Protease Inhibitor (Sigma, St. Louis, Mo.)). A FastPrep® Cell Disrupter (MP Biomedicals, Inc.) is used to disrupt the tissue and lyse the cells. Lysates are passed through a 20 gauge needle and transferred to a clean tube. Protein concentration is determined by Bradford method known to one of skill in the art.
Tumor lysates are loaded onto MSD® phosphor-Met ELISA plates and phosphor-c-Met level is determined using the same protocol as H460 cell-based ELISA. The S114 in vivo inhibition ED50 value for the compound of example 1 is 0.32 mg/kg with a 95% confidence interval bounded by 0.23 mg/kg and 0.41 mg/kg. The TEC50 for example 1 is 0.18 μM with a 95% confidence interval bounded by 0.13 μM and 0.23 μM.
In IVTI studies, each compound is administered orally and formulated in 10% w/v acacia. Mouse blood samples are collected with anti-coagulant (EDTA-purple top Vacutainer tube) post-dose using cardiac puncture techniques. […]

Series [2] in a line: Plasma concentration in IVTI studies. Conditions: mouse, oral, 10% acacia. As to the method:
In IVTI studies, each compound is administered orally and formulated in 10% w/v acacia. Mouse blood samples are collected with anti-coagulant (EDTA-purple top Vacutainer tube) post-dose using cardiac puncture techniques. Tubes are inverted for 3-5 times and are placed on ice until centrifugation at 3000 RPM (1800×g) for 10 min at 4° C. to obtain plasma. Aliquots of plasma are pipetted and stored in a clean 96 well plate. Plasma samples are stored immediately at −80° C. Shipments of plasma samples are packed in dry ice and samples are frozen at −80° C. until analysis.
A 0.1-mg/mL stock solution of each drug was prepared and is serially diluted into pooled mouse plasma to prepare standards ranging from 1 to 5000 ng/mL. Plasma standards or samples (0.025 mL) in 96-well plates are treated by protein precipitation with the addition of a 0.1-0.2 ml of methanol: acetonitrile (1/1, v/v) containing internal standard. […] Samples and standards are analyzed with a Sciex API 4000 Triple Quadrupole Mass Spectrometer (Sciex, Division of MDS Inc., Toronto, Canada) coupled to a Shimadzu HPLC System (LC-10AD, Shimadzu Corporation) and a Gilson 215 Autosampler. […] Quantitation is performed using multiple reaction monitoring (MRM) at the following transitions: Example 1 (m/z 363.05 to m/z 163.10) and the reference compound 20 (m/z 363.05 to m/z 163.10). […]

Series [3] in a line: Rat bioavailability study. Conditions: Example 1 dosed as mesylate salt. As for the experimental part: In rat bioavailability studies, each compound is administered intravenously (IV) or orally (PO). Intravenous dosing is formulated in solution formulation and oral dosing is formulated in 10% w/v acacia. Rat blood samples are collected using anti-coagulant (EDTA) collection tubes and centrifugation is performed to obtain plasma samples. Aliquots of plasma are pipetted and stored immediately at <−20° C. Shipments of plasma samples are packed in dry ice if needed and samples are frozen at <−20° C. until analysis.
A stock solution of each drug is prepared and is diluted into pooled rat plasma to prepare standards. Plasma standards or samples are treated by protein precipitation or liquid-liquid extraction using organic solvent containing internal standard. The mixtures are centrifuged and aliquots of the resulting supernatant fractions are transferred. In the case of protein precipitation, supernatant is diluted and analyzed using a Mass Spectrometer coupled to a HPLC System and an autosampler. In the case of liquid-liquid-extraction, supernatant is dried under N2 at 40° C., reconstituted and analyzed using a Mass Spectrometer coupled to a HPLC System and an autosampler. Quantitation is performed using multiple reaction monitoring (MRM) and linear regression plots of compounds to internal standard peak area ratios versus drug concentrations.

Marks after values point to notes of the source that are not given here.

Broadly, the Vdss is the apparent volume that relates the amount in the body to the concentration in plasma or blood. As usually defined, the AUC is concentration integrated over time. One may read the Cmax as the peak of the concentration-time curve. For orientation: Tmax means the time at which the peak concentration occurs. Regarding `Cn1cc(-c2ccc3nnc(Sc4ccc5ncn(C)c5c4)n3n2)cn1`, the “Single dose IVTI % inhibition after 2 h” value in series [1] (20 mg/Kg dose, 2 h, experiment separate from head to head study) is on record as 84**** %. Also, in series [1] (S114 tumors, oral 8 mg/kg, 8 h), the “% phos-Met inhibition at 8 mg/kg after 8 h” value is −5.45%. Besides, in series [1] (S114 tumors, oral 20 mg/kg, 8 h), the “% phos-Met inhibition at 20 mg/kg after 8 h” value is given as 0.57%. Besides, the “Plasma conc. 8 mg/Kg after 8 h” value in series [2] (8 mg/kg) is reported as 14 ng/mL. In addition, the “Plasma conc. 20 mg/Kg after 8 h” value in series [2] (20 mg/kg) is recorded as 17 ng/mL. Moreover, in series [3] (IV 1 mg/kg solution), the Cl worked out at 31 mL/min/kg, the T½ turned out to be 36 min and the Vdss was 0.8 L/kg. Also, in series [3] (PO 10 mg/kg in 10% acacia), the exposure (AUC) amounted to 794 ng·h/mL, the Cmax was determined as 164 ng/mL and the Tmax is 55 min. Moreover, in series [3] (PO 10 mg/kg vs IV 1 mg/kg), the “F % (oral bioavailability)” value was 14.6%.
